Values of other authors, collected in publication PMC11111636 (EJNMMI Radiopharmacy and Chemistry, 2024).

Protein sequences, listed by entry. Tags and fused reporters are not part of them. Lines headed by an entry give the natural chain unless they say otherwise; changes in a name come on top.
UniProt P30874: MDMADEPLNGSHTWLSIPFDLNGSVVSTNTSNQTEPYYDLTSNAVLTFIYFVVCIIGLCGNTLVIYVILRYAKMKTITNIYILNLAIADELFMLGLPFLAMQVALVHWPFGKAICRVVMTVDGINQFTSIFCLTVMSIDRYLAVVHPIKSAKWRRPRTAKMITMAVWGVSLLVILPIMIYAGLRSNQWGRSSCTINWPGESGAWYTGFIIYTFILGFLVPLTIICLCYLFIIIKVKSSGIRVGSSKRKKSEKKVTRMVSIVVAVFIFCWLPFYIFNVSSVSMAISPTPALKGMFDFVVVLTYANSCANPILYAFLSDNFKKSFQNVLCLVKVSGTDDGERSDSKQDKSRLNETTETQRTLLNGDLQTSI

Molecular target: T1, SSTR2 (Homo sapiens, UniProt P30874)
T1 construct: expressed in transfected cells; host or cells: U2OS (human osteosarcoma) cells
Set-up: method as in Santini et al.
Details: ref Santini et al.; cited from earlier work

Tyr^3-octreotate
IC50: 20.4 nM
